By Kd is commonly meant the free concentration of one partner at which half of the binding sites on the other are occupied at equilibrium, for simple one-to-one binding. Low readings indicate a tighter complex, high ones a looser complex.

Amino acid sequences for entries named in this document (tags omitted).
UniProt P49759, whole entry R432A: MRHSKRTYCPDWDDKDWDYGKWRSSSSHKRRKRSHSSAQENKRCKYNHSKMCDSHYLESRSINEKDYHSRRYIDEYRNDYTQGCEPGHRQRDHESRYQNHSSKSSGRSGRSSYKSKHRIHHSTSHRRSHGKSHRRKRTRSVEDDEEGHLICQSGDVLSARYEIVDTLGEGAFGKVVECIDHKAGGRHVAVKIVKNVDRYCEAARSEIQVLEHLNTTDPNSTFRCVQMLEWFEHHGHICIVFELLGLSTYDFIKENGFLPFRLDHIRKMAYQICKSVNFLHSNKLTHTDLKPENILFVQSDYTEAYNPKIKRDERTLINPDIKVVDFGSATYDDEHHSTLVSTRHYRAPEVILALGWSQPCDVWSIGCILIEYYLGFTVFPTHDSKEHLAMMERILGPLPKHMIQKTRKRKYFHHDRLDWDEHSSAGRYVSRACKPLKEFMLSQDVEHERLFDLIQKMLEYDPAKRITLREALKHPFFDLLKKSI

Consider 1 compound from BindingDB's records for doi:10.7270/Q2NC5ZHH (Ambit Biosciences, 2008).

The test addresses Dual specificity protein kinase CLK1 [R432A] (Homo sapiens, UniProt P49759, R432A). Conditions: Kd (nM).

Regarding `CCOc1cc2ncc(C#N)c(Nc3ccc(F)c(Cl)c3)c2cc1NC(=O)/C=C/CN(C)C` [(E)-N-[4-(3-chloro-4-fluoroanilino)-3-cyano-7-ethoxyquinolin-6-yl]-4-(dimethylamino)but-2-enamide], the dissociation constant (Kd) stood at 3300 nM.
